One molecule from ChEMBL document CHEMBL1131594, “Stereoisomers of cyclic urea HIV-1 protease inhibitors: synthesis and binding affinities” (J Med Chem, 1998) can be followed below.

In this experiment the target is Human immunodeficiency virus type 1 protease (Human immunodeficiency virus 1, UniProt Q72874). In words: Compound was tested for binding affinity against HIV-1 protease.

Broadly, the Ki is the equilibrium dissociation constant of an inhibitor or competing ligand from its target. Read a low Ki as higher affinity. `O=C1N(Cc2ccccc2)[C@H](Cc2ccccc2)[C@H](O)[C@H](O)[C@@H](Cc2ccccc2)N1Cc1ccccc1` displayed an inhibitory constant (Ki) of 6 nM.
